The term inhibition denotes the change of the read-out against control, counted positive when it falls.

The chains behind the UniProt entries cited, without tags or fusion partners.
UniProt O00206, whole entry: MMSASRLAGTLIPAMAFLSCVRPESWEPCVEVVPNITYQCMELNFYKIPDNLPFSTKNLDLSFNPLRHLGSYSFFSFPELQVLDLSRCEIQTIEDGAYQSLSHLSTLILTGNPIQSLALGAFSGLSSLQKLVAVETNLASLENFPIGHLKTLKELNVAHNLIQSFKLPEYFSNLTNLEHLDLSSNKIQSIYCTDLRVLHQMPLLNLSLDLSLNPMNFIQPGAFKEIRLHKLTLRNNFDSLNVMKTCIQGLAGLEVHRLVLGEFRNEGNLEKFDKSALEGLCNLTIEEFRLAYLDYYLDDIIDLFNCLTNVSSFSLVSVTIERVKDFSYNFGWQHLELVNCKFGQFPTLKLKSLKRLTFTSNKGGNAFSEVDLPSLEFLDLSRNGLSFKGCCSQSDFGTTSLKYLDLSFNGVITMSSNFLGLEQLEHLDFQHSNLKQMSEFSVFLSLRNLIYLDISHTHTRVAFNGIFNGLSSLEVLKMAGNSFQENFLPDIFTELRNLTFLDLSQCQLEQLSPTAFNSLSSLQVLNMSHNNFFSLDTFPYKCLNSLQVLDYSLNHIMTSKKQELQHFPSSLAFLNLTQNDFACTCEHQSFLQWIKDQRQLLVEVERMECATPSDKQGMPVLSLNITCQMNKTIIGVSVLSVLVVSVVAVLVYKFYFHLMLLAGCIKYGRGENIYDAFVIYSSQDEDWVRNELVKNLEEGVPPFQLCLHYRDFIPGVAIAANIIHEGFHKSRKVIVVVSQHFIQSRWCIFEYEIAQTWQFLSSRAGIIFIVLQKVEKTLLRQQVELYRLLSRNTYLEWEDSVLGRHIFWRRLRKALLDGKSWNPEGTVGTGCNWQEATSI

The entries are a selection whose mix differs from that of the whole data set. Activity calls are given as the source filed them. Rule as the data show it: active = inhibition above about 25%; inactive = the rest.

The test deals with Toll-like receptor 4 (Homo sapiens) + Myeloid differentiation primary response protein MyD88 (Homo sapiens) (UniProt O00206+Q99836). Put plainly: disruptors of TLR4 binding to MyD88 – cell-based, HeLa CL3-4, BLA complementation, FRET ratio, primary screen (AID 861).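 Also: 0% = vehicle and 100% = reference inhibitor.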 The note with it: HeLa CL3-4 TLR4/MyD88 BLA complementation, at 8.4 µM, stronger effect = higher value.
As to `CCOc1ncccc1C(=O)NCC1(N2CCOCC2)CCCCC1`, the inhibition is inactive: 0.51%. For `CC(C)(C)OC(=O)N1CCC(Nc2ccccc2)CC1`, the inhibition was inactive: -17.1%. Turning to `COc1cc(OC)cc(C(=O)NCC2(N3CCOCC3)CCCCC2)c1`, the inhibition was inactive: -2.18%. Next, `CCC(CO)(C(=O)OC1CN2CCC1CC2)c1ccccc1` (stereo not given): inactive: 2.45%; `CCN1CCC(Nc2cccc(F)c2)CC1`: inactive: -7.4%; `CN(C)c1ccc(C(=O)NCC2(N3CCCCC3)CCCCC2)cc1`: inactive: -8.56%.

Turning to `N#Cc1ccc(C(=O)NCC2(N3CCCCC3)CCCCC2)cc1`, the inhibition was inactive: 1.45%. In the case of `c1ccc(CN2CCC(Nc3ccccc3)CC2)cc1` it was inactive: 5.21%.

For `COc1ccc(C(=O)NCC2(N3CCOCC3)CCCCC2)cc1OC`, the inhibition is inactive: 11.2%. On to `N/C(=N\O)c1c(N)no[n+]1[O-]`, for which the inhibition was inactive: 4.38%. Next, `O=C(OC1CN2CCC1CC2)C1c2ccccc2C=Cc2ccccc21` (stereo not given): inactive: 3.4%. Regarding `CC(C)c1ccc(NC2CCN(C(=O)OC(C)(C)C)CC2)cc1`, the inhibition was inactive: 3.02%. Next, `CN(C)c1cccc(C(=O)NCC2(N3CCCCC3)CCCCC2)c1`: inactive: 4.21%; `COc1ccc(CN(CCCl)CCCl)cc1Cl`: inactive: 0.55%. For `CN1CCC(Nc2cccc(F)c2)CC1`, the inhibition is inactive: 6.33%. For `N#CC1(Nc2ccccc2)CCN(CCc2ccccc2)CC1`, the inhibition is inactive: 2.98%.

With `O=C(NCC1(N2CCCCC2)CCCCC1)c1cccc([N+](=O)[O-])c1`, the inhibition is inactive: -20.9%. In the case of `O=C(NCC1(N2CCOCC2)CCCCC1)c1cc(=O)[nH]c2ccccc12` it was inactive: -10.5%; in that of `COc1ccc(NC2CCN(C(=O)OC(C)(C)C)CC2)cc1`, inactive: 2.52%. Next, `CN1CCN(CCOC(=O)C(O)(c2ccccc2)c2ccccc2)CC1`: inactive: 2.12%; `COc1ccc(NC2CCN(CCc3ccccc3)CC2)c(OC)c1`: inactive: -2.1%; `COc1ccc(C(=O)NCC2(N3CCCCC3)CCCCC2)c(OC)c1OC`: inactive: -3.71%. Regarding `O=C(NCC1(N2CCOCC2)CCCCC1)c1cc2ccccc2o1`, the inhibition is inactive: 1.74%.

With `O=C(OC1CN2CCC1CC2)C1c2ccccc2Oc2ccccc21` (stereo not given), the inhibition is inactive: 10.5%. Next, `CCOC(=O)N1CCC(Nc2ccc(OC)cc2)CC1`: inactive: -4.75%.

These data come from PubChem BioAssay AID861 (The Scripps Research Institute Molecular Screening Center, 2007).
